Experimental data from patent US20120148556A1.
pIC50: −log10 of the molar value.

What was measured:
[1] = biological target: IGF-II receptor (IGF-IIR); experiment: Receptor Binding Assay (IGF-II receptor competitive binding assay against biotinylated IGF-II, plate format); lyophilized product after 12 months at 2-8 C
[2] = biological target: IGF-II receptor (IGF-IIR); experiment: Receptor Binding Assay (IGF-II receptor competitive binding assay against biotinylated IGF-II, plate format); lyophilized product at release

ZC-701 (from UniProt P10253 70-952) (enzyme)
pIC50 [1]: 7.62 | pIC50 [2]: 7.48
